Results: ChEMBL document CHEMBL6074673, “Discovery of UCB9386: A Potent, Selective, and Brain-Penetrant Nuak1 Inhibitor Suitable for In Vivo Pharmacological Studies” (J Med Chem, 2024)

Amino acid sequences for entries named in this document (tags omitted). A change or cut given only in a name is not applied to a line headed by its entry.
UniProt O60674: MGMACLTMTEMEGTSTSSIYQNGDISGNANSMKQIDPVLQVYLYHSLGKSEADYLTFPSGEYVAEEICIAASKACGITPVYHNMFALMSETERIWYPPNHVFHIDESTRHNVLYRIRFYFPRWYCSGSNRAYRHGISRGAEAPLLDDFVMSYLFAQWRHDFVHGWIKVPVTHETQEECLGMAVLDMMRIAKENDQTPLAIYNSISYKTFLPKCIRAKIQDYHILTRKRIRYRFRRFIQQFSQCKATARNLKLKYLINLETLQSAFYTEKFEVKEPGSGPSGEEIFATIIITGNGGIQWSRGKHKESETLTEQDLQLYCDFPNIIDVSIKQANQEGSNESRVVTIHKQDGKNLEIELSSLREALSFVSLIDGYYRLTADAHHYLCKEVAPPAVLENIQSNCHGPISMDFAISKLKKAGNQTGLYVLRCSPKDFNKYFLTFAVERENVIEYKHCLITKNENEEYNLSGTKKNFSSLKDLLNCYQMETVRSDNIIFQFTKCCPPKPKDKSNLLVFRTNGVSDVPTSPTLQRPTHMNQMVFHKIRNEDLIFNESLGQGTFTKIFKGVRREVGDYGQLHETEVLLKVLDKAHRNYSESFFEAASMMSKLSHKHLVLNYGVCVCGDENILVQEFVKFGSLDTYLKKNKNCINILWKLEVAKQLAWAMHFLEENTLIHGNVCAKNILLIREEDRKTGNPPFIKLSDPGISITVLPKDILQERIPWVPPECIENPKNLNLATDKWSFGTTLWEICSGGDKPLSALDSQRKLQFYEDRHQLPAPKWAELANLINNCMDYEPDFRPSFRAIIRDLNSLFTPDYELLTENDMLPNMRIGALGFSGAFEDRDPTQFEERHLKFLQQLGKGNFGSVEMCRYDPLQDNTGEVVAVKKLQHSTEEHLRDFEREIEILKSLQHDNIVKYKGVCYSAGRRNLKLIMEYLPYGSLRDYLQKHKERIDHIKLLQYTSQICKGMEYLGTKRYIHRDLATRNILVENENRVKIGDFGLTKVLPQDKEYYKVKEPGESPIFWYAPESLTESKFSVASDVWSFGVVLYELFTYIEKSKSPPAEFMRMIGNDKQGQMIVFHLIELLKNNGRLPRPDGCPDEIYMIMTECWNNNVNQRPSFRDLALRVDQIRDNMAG

Legend:
[1] = biological target: T1, NUAK family SNF1-like kinase 2 (Homo sapiens) (UniProt Q9H093); assay: Inhibition of Nuak2 (unknown origin) at 10 uM relative to control
T1 sequence (whole entry): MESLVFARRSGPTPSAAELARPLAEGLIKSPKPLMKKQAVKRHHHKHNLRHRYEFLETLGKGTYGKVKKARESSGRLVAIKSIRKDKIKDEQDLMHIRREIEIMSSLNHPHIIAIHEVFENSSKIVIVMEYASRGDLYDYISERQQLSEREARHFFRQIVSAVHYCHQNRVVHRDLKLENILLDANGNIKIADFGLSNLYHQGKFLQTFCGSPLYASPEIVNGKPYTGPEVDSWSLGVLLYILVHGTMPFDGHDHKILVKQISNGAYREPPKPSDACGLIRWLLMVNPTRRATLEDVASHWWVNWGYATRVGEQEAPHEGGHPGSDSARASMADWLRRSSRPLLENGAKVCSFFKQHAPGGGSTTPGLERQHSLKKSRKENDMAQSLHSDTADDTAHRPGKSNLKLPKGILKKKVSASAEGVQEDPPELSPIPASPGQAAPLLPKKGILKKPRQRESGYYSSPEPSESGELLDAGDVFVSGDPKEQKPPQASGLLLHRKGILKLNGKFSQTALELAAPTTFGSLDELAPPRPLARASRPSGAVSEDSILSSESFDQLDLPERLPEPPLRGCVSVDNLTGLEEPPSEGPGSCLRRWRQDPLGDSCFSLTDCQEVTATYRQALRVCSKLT

[2] = biological target: Tyrosine-protein kinase JAK2 (Homo sapiens) (UniProt O60674); assay: Inhibition of Jak2 (unknown origin) at 10 uM relative to control

- inhibition [1]: > 50%
- inhibition [2]: > 50%
SMILES: C[C@H](c1ccccc1)n1c(=O)c(N2CC3(CN(C)C3)C2)nc2cnc(-c3cnc4cccnn34)cc21
